Experimental data reported in patent US10168342B2, “Lipid probes and uses thereof” (THE SCRIPPS RESEARCH INSTITUTE, priority 2015, dated 2019).

Molecular target: T1, AEA-DA lipid probe targets in Neuro2a cells (Mus musculus, UniProt Q02819)
T1 sequence (Q02819 26-459): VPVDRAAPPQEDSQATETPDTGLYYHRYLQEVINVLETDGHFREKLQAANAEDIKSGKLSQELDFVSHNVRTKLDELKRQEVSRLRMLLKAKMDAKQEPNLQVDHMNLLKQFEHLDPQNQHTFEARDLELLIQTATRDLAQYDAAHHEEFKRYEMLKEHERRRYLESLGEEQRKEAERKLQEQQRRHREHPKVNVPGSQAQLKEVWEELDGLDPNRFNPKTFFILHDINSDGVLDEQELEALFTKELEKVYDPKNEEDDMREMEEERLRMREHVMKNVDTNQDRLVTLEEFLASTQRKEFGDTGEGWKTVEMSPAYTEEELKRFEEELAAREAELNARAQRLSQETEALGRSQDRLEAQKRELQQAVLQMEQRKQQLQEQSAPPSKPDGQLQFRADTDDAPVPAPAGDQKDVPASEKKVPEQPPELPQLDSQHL
Settings: FIG. 16I and Table 4

## CC(C)c1cc(C(C)C)c(CC(=O)NS(=O)(=O)Oc2c(C(C)C)cccc2C(C)C)c(C(C)C)c1 [avasimibe, reference compound]
  interaction with NUCB1 protein: did not interact
